Data on one compound can be found in ChEMBL document CHEMBL3638843, “Urokinase inhibitors, production and use thereof” (2013).

Sequences of proteins named here, by UniProt entry; tags and fusion partners are left off.
UniProt P00762, whole entry: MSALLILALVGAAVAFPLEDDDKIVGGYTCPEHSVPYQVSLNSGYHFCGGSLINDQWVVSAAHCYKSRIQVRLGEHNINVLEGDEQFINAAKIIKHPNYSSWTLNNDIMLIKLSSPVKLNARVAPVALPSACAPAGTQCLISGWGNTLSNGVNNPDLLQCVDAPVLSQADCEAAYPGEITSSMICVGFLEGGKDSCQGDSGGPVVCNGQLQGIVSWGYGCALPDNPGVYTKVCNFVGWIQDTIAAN

The test concerns the target Serine protease 1 (Rattus norvegicus, UniProt P00762). Nature of the test: Enzyme Assay: Inhibition constant of the compound against Trypsin.

Compound `N=C(N)c1ccc(CNC(=O)[C@H](CO)NC(=O)[C@@H](CO)NS(=O)(=O)Cc2ccccc2)cc1` registered a Ki of 22 nM.

For orientation: Ki means the equilibrium dissociation constant of an inhibitor or competing ligand from its target. Low readings indicate higher affinity, high ones lower affinity.
